Tested on: circulating platelets
Experiment: Thrombocytopenia / clearance of circulating platelets in multiple species
Format: in vivo
Experimental: The effect of Bcl-2 protein inhibitors on circulating platelets can be determined by administration of test compounds, preferably orally or intravenously, to an animal and analyzing a blood sample and determining the number of platelets by techniques well-known in the art. Preferably, blood samples are obtained from about 2 hours to about 48 hours after compound administration.

For `CC1(C)CCC(c2ccc(Cl)cc2)=C(CN2CCN(c3ccc(C(=O)NS(=O)(=O)c4ccc(N[C@H](CCN5CCOCC5)CSc5ccccc5)c(S(=O)(=O)C(F)(F)F)c4)cc3)CC2)C1` [EXAMPLE 2, N-(4-(4-((2-(4-chlorophenyl)-5,5-dimethyl-1-cyclohex-1-en-1-yl)methyl)piperazin-1-yl)benzoyl)-4-(((1R)-3-(morpholin-4-yl)-1-((phenylsulfanyl)methyl)propyl)amino)-3-((trifluoromethyl)sulfonyl)benzenesulfonamide], the “recovery of platelet counts after treatment” value was “recovery to normal platelet counts within several days” and the thrombocytopenia was “rapid clearance of circulating platelets”.

Reference: US7842681B2, “Treatment of myeoproliferative diseases” (Abbott Laboratories, priority 2006, dated 2010)
